Target: Thymidine phosphorylase (Escherichia coli K-12, UniProt P07650)

Amino acid sequences for entries named in this document (tags omitted). A change or cut given only in a name is not applied to a line headed by its entry.
UniProt P07650: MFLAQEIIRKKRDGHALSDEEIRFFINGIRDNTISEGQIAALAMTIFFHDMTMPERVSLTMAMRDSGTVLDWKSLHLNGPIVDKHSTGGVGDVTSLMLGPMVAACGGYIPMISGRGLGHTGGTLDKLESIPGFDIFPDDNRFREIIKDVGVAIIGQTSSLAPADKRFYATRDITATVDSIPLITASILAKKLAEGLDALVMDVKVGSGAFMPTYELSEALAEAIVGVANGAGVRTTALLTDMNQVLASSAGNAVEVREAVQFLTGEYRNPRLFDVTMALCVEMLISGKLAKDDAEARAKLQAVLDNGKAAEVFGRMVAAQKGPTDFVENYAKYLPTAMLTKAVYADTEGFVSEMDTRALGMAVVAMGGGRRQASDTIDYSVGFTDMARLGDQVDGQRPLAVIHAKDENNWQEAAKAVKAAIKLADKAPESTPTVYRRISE

IC50: 6.5 µM
Structure (SMILES): O=c1[nH]c(=O)c2cc[nH]c2[nH]1 [7-DEAZAXANTHINE]

Reference: ChEMBL document CHEMBL1137985, “Synthesis and enzymatic evaluation of xanthine oxidase-activated prodrugs based on inhibitors of thymidine phosphorylase” (Bioorg Med Chem Lett, 2004)
